Results published in patent US20090143761A1, “AGENT DELIVERY SYSTEM AND USES OF SAME” (T[…] COMPANY, LLC, priority 2005, published 2009).

In the case of `O=C([O-])[O-].[Li+].[Li+]` [lithium, lithium carbonate], the “passive delivery of lithium without iontophoresis” value (control, electrodes present but no current passed) is reported as “no passive delivery” and the “effect of current on amount of lithium delivered” value (two current dosages, EpiDerm, 37 C) is reported as “A two-fold increase in current caused an equivalent increase in the amount of lithium delivered”.
